# Nrf2 inh = blocks Nrf2 signaling; A549 ARE-Fluc reporter, luciferase luminescence, 18-24 h; 360,000 tested, 2.1% active; AID 504444; Potency, µM (titrated, usually from 46 µM), hits mostly inhibitors; also: nearly all actives have a fitted effect of over 60% in size
#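 Two sequential reads on A549 ARE_Fluc cells exposed to compound for 18-24 h: a CellTiter-Fluor fluorescence read for viability, then a luciferase luminescence read for Nrf2/ARE activity.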
# Nrf2 ARE act = Nrf2 pathway activation | AID 624171 | 410,000 tested, 0.31% active | AREc32 ARE-luciferase reporter (MCF7-derived line), luminescence, 24 h | Potency, µM (titrated, usually from 46.1 µM), most hits filed as activators; also: nearly all actives have a fitted effect of over 65% in size
#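 AREc32 cells carrying an ARE-driven firefly luciferase reporter were seeded at 1000 cells/well in OPTI-MEM with 5% FBS, then exposed to compound for 24 hr at 37 deg C. Luminescence was read with Steady-Glo after 30 min at RT.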
# miR-21 reporter = miR-21 reporter, rising signal | HeLa miR-21 FLuc reporter, luciferase, 48 h | Potency, µM (top dose mostly 38.3 µM) | 340,000 tested, under 10 active | AID 2288; active = well fitted rising curve with a large enough effect; inconclusive = small, poorly fitted or top-dose-only effect; inactive = no such curve, though single readings can be large or run the other way;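 further: miR-21 action dims this reporter so a rising signal means less miR-21 action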
#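 Luminescence from a firefly luciferase reporter carrying a miR-21 binding site downstream, stably expressed under a CMV promoter in HeLa cells that make miR-21 endogenously, reports miRNA modulation after 48 h compound exposure up to approximately 40uM final.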
# A549 tox = kills or reduces viability of A549 cells in Nrf2 counter-screen | A549 ARE-Fluc cells, CellTiter-Fluor viability, 18-24 h | Potency, µM (titrated, usually from 46 µM), most hits filed as inhibitors | 390,000 tested, 0.16% active
#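 Cytotoxicity counterscreen: CellTiter-Fluor fluorescence was measured in A549 ARE_Fluc cells after 18-24 h of compound exposure in a concentration series. The subsequent BugLite luminescent read reports ARE-luciferase activity.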
# ClpP mod = qHTS Assay for Activators of ClpP | ATP-dependent Clp protease proteolytic subunit (Bacillus subtilis (strain 168)), P80244 | purified B. subtilis ClpP, FRET peptide cleavage, 20 min | Potency, µM (titrated, usually from 57.5 µM) | 340,000 tested, 1.9% active | AID 651965, 2013; active = well fitted falling curve with a large enough effect; inconclusive = small, poorly fitted or top-dose-only effect; inactive = no such curve, though single readings can be large or run the other way; also: the source files actives as falling curves though it sought activators and does not explain the sign; nearly all actives have a fitted effect of over 65% in size
#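 FRET quenching reversal measured ClpP activation: 10 microg/mL B. subtilis ClpP at pH 8 with the FRET-FV decapeptide, read at 430 nm after 320 nm excitation. The 20-min minus 0-min signal was scaled between DMSO/no-enzyme wells and ADEP (5.8 microM final).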
# IL2 activator = activates IL-2 in a cell-based reporter assay; IL-2 activation reporter assay, cell-based qHTS; stimulated with anti-CD3/CD4/CD28 beads; in transgenic mouse T cells; activation, % (series mostly up to about 46 µM); 360,000 tested, 0.065% active; AID 652025; in the data active = activation above about 50%; inconclusive = mostly about 30% to 49%
#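 Unstimulated transgenic mouse T cells, 750 per well, received compound and, after 60 minutes, anti-CD3/anti-CD4 bead plus anti-CD28 stimulation. EGFP and DsRed were quantified after 18 hours.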
# A number is an active result; - = inactive; ? = inconclusive; . = no result. This is a sample that favours compounds with a hit; in the whole collection about 3.7% have one here. Unless noted, calls follow the shape of the dose curve; as a rule, active = well fitted curve in the direction sought with a large enough effect; inconclusive = small, poorly fitted or top-dose-only effect, or another doubt; inactive = no such curve, though single readings can be large; an effect the other way counts as inactive or inconclusive.
SMILES,Nrf2 inh,Nrf2 ARE act,miR-21 reporter,A549 tox,ClpP mod,IL2 activator
CCOc1ccc(NC(=O)C[n+]2ccc(N(C)C)cc2)cc1,?,-,-,-,-,-
CN(C)c1cc[n+](CC(=O)c2ccc(OC(F)F)cc2)cc1,21µM,-,-,-,.,-
CC(=O)Nc1cc[n+](CC(=O)c2ccc(Cl)cc2)cc1,23µM,-,-,-,.,-
CN(C)c1cc[n+](CC(=O)Nc2ccc(Cl)cc2)cc1,6.5µM,-,?,-,-,-
CN(C)c1cc[n+](CC(=O)Nc2ccc(Oc3ccccc3)cc2)cc1,23µM,-,?,-,.,-
Cc1oc(-c2cccc(Cl)c2)nc1Cn1c(SCc2ccccc2F)nc2ccncc21,?,-,-,-,-,.
Cc1n[nH]c(C)c1S(=O)(=O)N1CCCC(C(=O)Nc2ccc(Cl)cc2)C1 (stereo not drawn),?,-,-,-,-,.
O=C(CCS(=O)(=O)c1cc(Br)cc2c1N(C(=O)C1CC1)CC2)N1CCN(c2cccc(C(F)(F)F)c2)CC1,?,-,-,-,-,.
O=C(NCc1ccc2c(c1)CCN2C(=O)c1ccncc1)c1ccccc1Cl,.,-,?,-,?,.
COC(=O)COc1cc(OCC(=O)OC)c2c(C)c(Cl)c(=O)oc2c1,-,-,-,-,14µM,-
CCc1c(C)c2ccc(OCC(=O)OC)cc2oc1=O,-,-,-,-,14µM,-
COC(=O)Cc1c(C)c2ccc(OC(C)C)cc2oc1=O,-,-,-,-,-,-
COC(=O)C(C)Oc1cc(OC(C)C(=O)OC)c2c(C)c(Cl)c(=O)oc2c1 (stereo not drawn),-,-,-,-,.,-
COC(=O)COc1cc(C)cc2oc(=O)c(CC(=O)OC)c(C)c12,-,-,-,-,14µM,-
Cc1c(CCC(=O)O)c(=O)oc2cc(OCc3ccccc3Br)ccc12,21µM,-,-,-,-,-
CCC(C(=O)Nc1ccc(C(=O)OC)cc1)n1nc(-c2ccc(C)c(C)c2)ccc1=O (stereo not drawn),?,-,-,-,-,.
COc1cc(C(=O)N/N=C/c2ccc3c(c2)c2ccccc2n3C)ccc1O,-,-,-,-,28µM,-
COc1cc(C=NNC(=O)c2ccccc2-n2cccc2)ccc1O,-,-,.,-,20µM,-
CCn1c2ccccc2c2cc(/C=N/NC(=O)c3ccccc3)ccc21,?,-,-,-,22µM,-
O=C(N/N=C\c1ccc(O)c([N+](=O)[O-])c1)c1ccccc1-n1cccc1,-,-,-,-,-,-
COc1cc(/C=N\NC(=O)c2ccc(-c3ccccc3)cc2)cc(OC)c1OC(C)=O,13µM,-,-,-,?,-
COc1cc(/C=N\NC(=O)c2ccc(-c3ccccc3)cc2)cc(OC)c1O,-,-,-,-,-,-
CCOC(=O)CSc1nc2c(sc3cccc(F)c32)c(=O)n1Cc1ccc(OC)cc1,.,-,-,-,-,.
Cc1nc2ccc(NS(=O)(=O)c3c(C)c(C)cc(C)c3C)cc2s1,15µM,-,-,-,-,-
Cc1nc2cc(NS(=O)(=O)c3ccccc3F)ccc2s1,-,-,-,-,-,-
SMILES,Nrf2 inh,Nrf2 ARE act,miR-21 reporter,A549 tox,ClpP mod,IL2 activator
Cc1nc2cc(NS(=O)(=O)c3c(C)c(C)cc(C)c3C)ccc2s1,11µM,-,-,?,-,-
FC(F)(F)c1cc(-c2ccco2)nc(NCc2ccco2)n1,-,10µM,-,-,-,-
COc1ccc(-c2cc(C(F)(F)F)nc(NCc3ccco3)n2)cc1OC,-,-,-,-,?,-
FC(F)(F)c1cc(-c2ccc3c(c2)OCO3)nc(NCc2ccco2)n1,-,-,-,-,25µM,-
C=C1C(=O)OC2C1CCC(C)C1C=CC(=O)C12C (stereo not drawn),?,?,.,-,-,-
C=C1C(=O)OC2CC1C(O)CC(C)=CCCC(C)=CC(O)CC2C (stereo not drawn),9.2µM,?,.,15µM,-,-
COc1cccc(-c2nnc(NC(=O)c3ccc(S(=O)(=O)N4CCOCC4)cc3)o2)c1,12µM,-,-,-,-,-
O=C(Nc1nnc(C2CC2)o1)c1ccc(S(=O)(=O)N2CCCc3ccccc32)cc1,10µM,-,?,-,-,-
COc1ccc(-c2nnc(NC(=O)c3ccc(S(=O)(=O)N4CCCc5ccccc54)cc3)o2)cc1,14µM,-,-,?,-,-
CCCCCn1ncc2c3sc(C)cc3n(C)c2c1=O,?,.,.,-,.,.
COc1ccc(N2CC(NC(=O)c3ccc(Br)o3)CC2=O)cc1 (stereo not drawn),.,-,-,-,-,.
COc1ccccc1C(=O)Nc1ccc(-c2cc(C(F)(F)F)nn2-c2ccccc2)cc1,?,-,-,-,22µM,.
Cc1ccc(-c2nnc(Nc3ccc(O)cc3)c3ccccc23)cc1S(=O)(=O)NCC1CCCO1 (stereo not drawn),?,-,-,-,-,.
CCc1ccc(CNc2ccc3c(c2)ncn3C)cc1,?,-,-,-,28µM,-
c1ccc(-n2cnc3cc(NCc4cccs4)ccc32)cc1,?,-,-,-,?,-
Cc1ccc(CNc2ccc3c(c2)ncn3C(C)(C)C)cc1,?,-,-,-,-,-
Cc1ccc(CNc2ccc3c(c2)ncn3C)cc1,?,-,-,-,25µM,-
Cc1ccc(-n2cnc3cc(NCc4cccs4)ccc32)cc1,-,-,-,-,22µM,-
CCN(CC)S(=O)(=O)c1ccc2c(c1)N(CC(=O)NCCCN1CCN(c3ccc(OC)cc3)CC1)C(=O)CO2,.,-,-,-,-,.
Cc1cc(C)cc(NC(=O)C2CCN(S(=O)(=O)c3cn(C)cn3)CC2)c1,.,-,-,-,-,.
CSc1[nH]c(=O)c(C(=O)O)cc1C#N,-,-,-,-,40µM,-
CCOC(=O)c1cc(C#N)c(SCC(=O)O)[nH]c1=O,-,-,-,-,.,-
CC(C)(C)c1cc(C(F)(F)F)c(C#N)c(=O)[nH]1,-,-,-,-,?,-
CC(C)(C)c1cc(=O)n2c(C#N)c(C#N)nc2[nH]1,-,-,-,-,28µM,-
C[C@@H]1[C@H](c2ccccc2)OCCS(=O)(=O)N1Cc1cccc(Cl)c1,.,.,.,.,-,.
C=CC(=O)Nc1ccc(N(C)c2ccnc(Nc3ccc(N4CCN(C)CC4)cc3)n2)cc1,-,-,.,7.3µM,-,-
CN1CCN(c2ccc(NC(=O)c3ccc(Oc4ccccc4)cc3)cc2)CC1,-,-,-,-,-,-
